This note sets out measurements from PubChem BioAssay AID743263 (The Scripps Research Institute Molecular Screening Center, 2014).

Protein sequences, listed by entry. Tags and fused reporters are not part of them. Lines headed by an entry give the natural chain unless they say otherwise; changes in a name come on top.
UniProt O95551: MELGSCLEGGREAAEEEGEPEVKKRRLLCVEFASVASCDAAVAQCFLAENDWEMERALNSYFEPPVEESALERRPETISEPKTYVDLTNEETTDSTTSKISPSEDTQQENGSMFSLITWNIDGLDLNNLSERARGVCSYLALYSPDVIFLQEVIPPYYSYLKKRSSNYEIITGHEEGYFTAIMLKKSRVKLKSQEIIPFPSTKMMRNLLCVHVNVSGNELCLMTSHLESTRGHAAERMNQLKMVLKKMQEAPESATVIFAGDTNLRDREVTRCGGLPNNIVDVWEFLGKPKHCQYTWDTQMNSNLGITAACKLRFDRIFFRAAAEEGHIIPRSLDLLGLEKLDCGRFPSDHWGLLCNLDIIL

This is a selection; strong and weak results do not stand in their true shares. Activity calls are given as the source filed them. No stated cut-off is given here; in the data, active means inhibition above about 25%; inactive means the rest.

For the test, the target named is Tyrosyl-DNA phosphodiesterase 2 (Homo sapiens) (UniProt O95551). Nature of the test: blockers of TDP2 phosphodiesterase activity – biochemical, epi absorbance, recombinant enzyme, confirmation (AID 743263).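 Further: 0% = vehicle with enzyme and 100% = no enzyme buffer only.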 To be noted: recombinant human TDP2, absorbance read-out; at 12.8 µM; active compounds read high.
As to `Nc1cccc2ccc([As](=O)(O)O)cc12`, the inhibition was active: 68.2%.

For the compound `CC(=O)c1ccc(N2CC2c2ccncc2)cc1` (stereo not drawn), the inhibition is inactive: 6%.

`Nc1cccc2c([As](=O)(O)O)cccc12`: the inhibition was active: 39%.

A word on the inhibition: it is the share of the control response that was lost under treatment.
